Results reported in patent US20240218342A1, “SITE-SPECIFIC GLYCAN REMODELING OF LYSOSOMAL ENZYMES AND APPLICATIONS THEREOF” (priority 2021, published 2024).

Chains of the proteins cited; added tags and fusions are not shown. Residues count along the entry.
UniProt P11717, 41-2491: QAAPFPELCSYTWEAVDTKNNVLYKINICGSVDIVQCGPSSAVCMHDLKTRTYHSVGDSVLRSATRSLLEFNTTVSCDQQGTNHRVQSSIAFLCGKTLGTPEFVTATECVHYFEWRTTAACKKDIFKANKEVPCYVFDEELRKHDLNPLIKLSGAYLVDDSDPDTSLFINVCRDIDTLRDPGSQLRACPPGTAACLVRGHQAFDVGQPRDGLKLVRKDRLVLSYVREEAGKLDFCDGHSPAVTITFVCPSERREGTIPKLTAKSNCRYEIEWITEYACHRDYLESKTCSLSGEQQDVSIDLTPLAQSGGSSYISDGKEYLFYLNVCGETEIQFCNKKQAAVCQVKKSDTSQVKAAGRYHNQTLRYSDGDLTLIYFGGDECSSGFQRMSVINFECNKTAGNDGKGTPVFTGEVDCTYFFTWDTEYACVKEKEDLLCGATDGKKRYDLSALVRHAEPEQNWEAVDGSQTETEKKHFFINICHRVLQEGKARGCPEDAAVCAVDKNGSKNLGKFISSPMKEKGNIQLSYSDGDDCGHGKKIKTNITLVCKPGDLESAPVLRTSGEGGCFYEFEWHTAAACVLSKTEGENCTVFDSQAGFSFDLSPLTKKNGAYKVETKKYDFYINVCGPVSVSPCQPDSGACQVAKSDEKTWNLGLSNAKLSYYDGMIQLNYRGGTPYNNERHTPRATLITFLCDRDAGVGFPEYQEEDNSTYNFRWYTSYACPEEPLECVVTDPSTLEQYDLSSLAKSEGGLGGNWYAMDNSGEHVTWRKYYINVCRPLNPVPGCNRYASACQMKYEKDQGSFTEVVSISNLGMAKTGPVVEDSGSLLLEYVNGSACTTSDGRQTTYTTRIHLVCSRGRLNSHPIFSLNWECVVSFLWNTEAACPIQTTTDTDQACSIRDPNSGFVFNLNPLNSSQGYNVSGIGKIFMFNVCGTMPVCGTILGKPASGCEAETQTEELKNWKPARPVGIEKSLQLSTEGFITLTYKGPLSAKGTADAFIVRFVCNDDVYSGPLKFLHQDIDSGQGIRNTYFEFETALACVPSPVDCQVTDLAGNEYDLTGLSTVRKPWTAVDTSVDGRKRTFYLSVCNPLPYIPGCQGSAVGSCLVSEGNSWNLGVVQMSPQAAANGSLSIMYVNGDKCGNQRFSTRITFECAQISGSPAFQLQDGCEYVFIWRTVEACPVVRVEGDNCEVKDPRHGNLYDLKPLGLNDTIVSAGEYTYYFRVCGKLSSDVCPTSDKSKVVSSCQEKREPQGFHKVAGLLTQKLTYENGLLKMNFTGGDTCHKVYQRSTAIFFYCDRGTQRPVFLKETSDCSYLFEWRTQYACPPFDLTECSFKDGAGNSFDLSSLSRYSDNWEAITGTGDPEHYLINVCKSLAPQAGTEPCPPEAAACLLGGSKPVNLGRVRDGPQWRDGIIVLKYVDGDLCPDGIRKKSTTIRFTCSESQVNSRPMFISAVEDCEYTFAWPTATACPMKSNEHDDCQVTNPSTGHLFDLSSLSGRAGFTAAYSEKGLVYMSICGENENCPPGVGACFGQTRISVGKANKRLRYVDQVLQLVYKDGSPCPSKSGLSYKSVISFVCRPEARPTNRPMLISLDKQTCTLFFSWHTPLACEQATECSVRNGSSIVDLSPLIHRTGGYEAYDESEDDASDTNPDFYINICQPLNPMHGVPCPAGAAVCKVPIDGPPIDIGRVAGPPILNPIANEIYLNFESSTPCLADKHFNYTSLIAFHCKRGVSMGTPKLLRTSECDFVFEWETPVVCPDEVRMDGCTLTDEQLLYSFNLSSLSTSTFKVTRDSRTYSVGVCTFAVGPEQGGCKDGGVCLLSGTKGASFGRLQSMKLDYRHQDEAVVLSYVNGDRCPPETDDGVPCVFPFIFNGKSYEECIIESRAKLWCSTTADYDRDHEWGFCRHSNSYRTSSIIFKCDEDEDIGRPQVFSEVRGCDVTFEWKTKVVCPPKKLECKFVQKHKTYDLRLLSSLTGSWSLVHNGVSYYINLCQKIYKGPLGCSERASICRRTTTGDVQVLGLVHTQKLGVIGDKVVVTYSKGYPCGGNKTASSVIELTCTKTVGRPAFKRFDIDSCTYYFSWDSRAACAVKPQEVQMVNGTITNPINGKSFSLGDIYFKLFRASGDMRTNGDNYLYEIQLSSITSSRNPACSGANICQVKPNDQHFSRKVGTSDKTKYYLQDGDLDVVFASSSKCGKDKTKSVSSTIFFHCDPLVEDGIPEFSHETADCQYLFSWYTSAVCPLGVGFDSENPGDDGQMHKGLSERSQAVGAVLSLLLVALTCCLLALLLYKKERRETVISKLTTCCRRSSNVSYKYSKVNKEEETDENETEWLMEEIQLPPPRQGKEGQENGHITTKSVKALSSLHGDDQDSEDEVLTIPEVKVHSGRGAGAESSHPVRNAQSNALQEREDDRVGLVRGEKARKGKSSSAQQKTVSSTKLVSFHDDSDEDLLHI

Target: Recombinant human IGF-II R (CI-MPR) (Homo sapiens, UniProt P11717)
Assay: SPR binding to immobilized CI-MPR
Conditions: 25° C., three independent experiments

Lumizyme: recombinant human acid α-glucosidase (alglucosidase alfa, Genzyme), therapeutic lysosomal enzyme for Pompe disease
Kd: 14 nM
